{"source": "patent EP4821512A1", "about": "“RADIOLABELED COLLAGEN HYBRIDIZING PEPTIDE AND PREPARATION METHOD THEREFOR AND USE THEREOF” (dated 2026)", "key": {"denatured collagen [1]": {"tested_on": "denatured collagen", "test": "1 h dynamic PET-CT and ex vivo biodistribution, CFPAC-1 subcutaneous tumor model", "protocol": "In this test example, ^68Ga-Cy3-CHP prepared in Example 1 was used as a sample to evaluate the in vivo targeting specificity of the radiolabeled CHP-PET probe constructed in the present disclosure toward denatured collagen. The specific methods were as follows: First, a mouse subcutaneous tumor model was constructed using the human pancreatic cancer cell line CFPAC-1 (3×10^6 CFPAC-1 cells were injected into the right shoulder/back of 6-week-old female Balb/c-nu nude mice; experiments were conducted when the subcutaneous tumors reached 200 mm^3). The mice were divided into three groups. In two of the groups, the subcutaneous tumor-bearing mice were injected via the tail vein with approximately 8.42 MBq of either the denatured collagen-targeting probe ^68Ga-Cy3-CHP or the non-targeting probe ^68Ga-Cy3-^SCHP (the probe prepared in Comparative Example 1). Another group of mice was pre-injected with a blocking dose of the non-radiolabeled precursor probe NOTA-Cy3-CHP before being injected with ^68Ga-Cy3-CHP (blocking group). Dynamic PET-CT imaging was performed for 1 h.\nTo verify the PET imaging results, the mice were euthanized after the 1 h dynamic PET imaging, and the tumors were harvested for ex vivo biodistribution analysis, calculated as a percentage of the injected dose per gram (% ID/g)."}, "[2]": {"test": "In vitro stability analysis by radioactive TLC in PBS and FBS", "settings": "37 °C, 2 h, TLC every 30 min", "protocol": "The ^68Ga-Cy3-CHP probe prepared in Example 1 was placed in 1x PBS and 10% fetal bovine serum (FBS) solutions, incubated at 37 °C for 2 h, and subjected to radioactive TLC detection every 30 min."}, "denatured collagen [3]": {"tested_on": "denatured collagen", "test": "Response to anti-fibrotic therapy: ex vivo lung fluorescence imaging of ^68Ga-Cy5-CHP probe uptake in bleomycin-injured mice", "settings": "lungs imaged at 4 h", "from_the_text": "This test example utilized the ^68Ga-Cy5-CHP probe prepared in Example 2 to characterize the in vivo response of mice to two different anti-fibrotic treatments, further proving that the probe developed in the present disclosure can be used not only for disease detection imaging but also to reflect the dynamic changes of ECM remodeling, guiding mechanistic studies of disease progression and efficacy studies in drug development. The specific characterization methods of this test example were as follows:\nAs one of the two conditionally recommended therapies for IPF in clinical practice, PFD exerts anti-fibrotic effects by inhibiting fibroblast proliferation and differentiation, in addition to inhibiting TGF-β1 production and collagen synthesis. PFD inhibits the synthesis and degradation of collagen. […] On the 21st day after modeling, ^68Ga-Cy5-CHP was injected into the tail vein of the mice, and the lungs were harvested for fluorescence imaging at 4 h.\nIt was first hypothesized that fibrotic lungs treated with DHX would show less collagen accumulation but higher levels of collagen degradation and denaturation compared to the untreated BM control group. […] On the 24th day after modeling, ^68Ga-Cy5-CHP was injected into the tail vein of the mice, and the lungs were harvested for fluorescence imaging at 4 h."}, "[4]": {"tested_on": "PDAC lesions in the KPC model", "test": "Static PET, ex vivo PET and biodistribution for PDAC lesions in the transgenic KPC model", "from_the_text": "Since the probes target the ECM, there are significant differences between the tumor ECM induced after injecting human tumor cells, whether in subcutaneous or orthotopic tumor models, and the real tumor ECM. […] The probes prepared in the examples of the present disclosure were used to detect PDAC lesions in the KPC model (>16 weeks of age) to further screen for preferred targeting probes.\nThe specific experimental method was as follows: KPC mice and normal mice of the same age were taken, and approximately 10 MBq of ^68Ga-Cy5-CHP was injected into the tail vein of the mice, respectively. Static scans were performed for 2 h. After the static scans, the mice were sacrificed, the pancreas was harvested for ex vivo PET, and the radioactive biodistribution of all organs was determined.\nIn order to adjust the biodistribution of radionuclide-labeled molecular probes and thereby improve the in vivo imaging effect of pancreatic tumors, in this section, ^68Ga-Cy5-CHP was improved by using another metal nuclide, ^64Cu, i.e., ^64Cu-Cy5-CHP prepared in the above Example 3 was used for further detection. The specific method was as follows: Approximately 10 MBq of ^64Cu-Cy5-CHP was injected into the tail vein of KPC mice (>16 weeks of age) and normal mice of the same age. Static scans were performed at multiple time points of 2 h, 4 h, 6 h, and 8 h. After 8 h, the pancreas was harvested for ex vivo PET.\nIn this section, the nuclide was changed to Al^18F, i.e., the Al^18F-Cy5-CHP probe prepared in Example 4 was used for in vivo imaging of pancreatic tumors. The specific method was as follows: approximately 10 MBq of Al^18F-Cy5-CHP was injected into the tail vein of KPC mice (>16 weeks of age) and normal mice of the same age, and a 3 h static scan was performed."}, "denatured collagen [5]": {"tested_on": "denatured collagen", "test": "Biodistribution by 1 h PET/CT, CFPAC-1 subcutaneous tumor-bearing mice and normal mice", "settings": "normal mice (FIG. 27); 1 h PET/CT", "protocol": "In order to intuitively evaluate the in vivo targeting specificity for denatured collagen and the in vivo biodistribution effects of the various constructed CHP-PET probes, this test example used the human pancreatic cancer cell line CFPAC-1 to construct a mouse subcutaneous tumor model. Subsequently, approximately 8.42 MBq of the collagen hybridizing peptide probes prepared in the above Examples 5-7 and Comparative Examples 3-6 were injected via the tail vein, and PET-CT imaging was performed at designated times.\nThe specific construction method for the mouse subcutaneous tumor model was as follows: 3 × 10^6 CFPAC-1 cells were injected into the right shoulder/back of 6-week-old female Balb/c-nu nude mice, and subsequent experiments were conducted when the subcutaneous tumors reached 200 mm^3."}, "PanIN lesions": {"tested_on": "PanIN lesions", "test": "2 h static PET-CT detection of PanIN lesions in 8-week-old KPC mice", "protocol": "In order to explore whether radionuclide-labeled CHP probes can detect pancreatic intraepithelial neoplasia (PanIN) lesions in vivo, this test example employed the Al^18F-Cy5-CHP probe using younger KPC mice. Theoretically, 8-week-old KPC mice have not yet progressed to the PDAC stage. These KPC mice and normal mice of the same age were injected with approximately 10 MBq of Al^18F-Cy5-CHP via the tail vein, followed by a 2 h static PET-CT scan.\nThe detection results are shown in FIG. 14A to FIG.14C, where FIG. 14A is a representative PET image of the 2 h static scan of Al^18F-Cy5-CHP, FIG. 14B is the ex vivo PET result of the pancreas, and FIG. 14C is the quantification of pancreatic radioactivity uptake. […] After imaging, the pancreas was harvested for ex vivo PET and its radioactivity was measured.\nFurthermore, in this test example, frozen sections of the pancreas were prepared for HE staining and CHP counterstaining. […] This is because, during the evolution of PDAC, a large amount of unwound collagen already exists as early as the PanIN stage. […] It can be seen that the Al^18F-Cy5-CHP probe of the present disclosure has an excellent signal-to-noise ratio, enabling it to successfully detect such minute lesions as PanIN, providing a new tool for the early detection of PDAC."}, "[6]": {"settings": "KPC mice >16 weeks, approx. 10 MBq tail vein, 3 h static PET scan"}}, "data": [{"compound": "Cy3-Ahx-K(NOTA-^68Ga)-K(NH2)-Ahx-(GfO)9", "values": [{"measurement": "tumor PET signal during 1 h dynamic imaging, blocking group", "setting": "denatured collagen [1]; pre-injection of a blocking dose of NOTA-Cy3-CHP", "value": "sustained low signal"}, {"measurement": "tumor visibility on PET images, blocking group", "setting": "denatured collagen [1]; pre-injection of a blocking dose of non-radiolabeled NOTA-Cy3-CHP, 30 min and 60 min", "value": "tumors are not observable"}, {"measurement": "tumor PET signal during 1 h dynamic imaging", "setting": "denatured collagen [1]; subcutaneous CFPAC-1 tumor, approx. 8.42 MBq tail vein", "value": "washes out from the tumor slowly and maintains a significantly high signal throughout the dynamic imaging process"}, {"measurement": "tumor visibility on PET images", "setting": "denatured collagen [1]; subcutaneous CFPAC-1 tumor, approx. 8.42 MBq tail vein, 30 min and 60 min of 1 h dynamic PET", "value": "subcutaneous tumors can be clearly observed at 0.5 h and 1 h"}, {"measurement": "ex vivo tumor uptake", "setting": "denatured collagen [1]; tumors harvested after 1 h dynamic PET, versus scrambled and blocking groups", "value": "significantly higher tumor uptake"}, {"measurement": "^68Ga labeling retained (radioactive TLC)", "setting": "[2]; 1x PBS", "value": "no significant decrease in ^68Ga labeling after approximately 2 h"}, {"measurement": "^68Ga labeling retained (radioactive TLC)", "setting": "[2]; 10% fetal bovine serum (FBS)", "value": "no significant decrease in ^68Ga labeling after approximately 2 h"}]}, {"compound": "Oc1cc2c(cc1O)[C@H]1c3ccccc3CN[C@@H]1CC2", "values": [{"measurement": "lung uptake of the probe after DHX treatment", "setting": "denatured collagen [3]; DHX from 10 days after bleomycin modeling, ^68Ga-Cy5-CHP on day 24, versus untreated BM group", "value": "significantly higher than that of the untreated BM disease group"}]}, {"compound": "Cc1ccc(=O)n(-c2ccccc2)c1", "values": [{"measurement": "lung uptake of the probe after PFD treatment", "setting": "denatured collagen [3]; PFD from one day after bleomycin modeling, ^68Ga-Cy5-CHP on day 21, versus untreated BM control", "value": "significantly reduces the lung uptake of the probe in vivo"}]}, {"compound": "Cy5-Ahx-K(NOTA-Al^18F)-K(NH2)-Ahx-(GfO)9", "values": [{"measurement": "PDAC detection compared with ^18F-FDG", "setting": "[4]; 3 h static scan versus 1 h static PET scan of ^18F-FDG", "value": "superior to traditional ^18F-FDG"}, {"measurement": "in vivo detection of PDAC lesions", "setting": "[4]; [6]", "value": "PDAC lesions in the KPC model can be accurately detected with high clarity and signal-to-noise ratio"}, {"measurement": "uptake in the liver and spleen", "setting": "[4]; [6]", "value": "significantly reduced"}, {"measurement": "uptake in the liver compared to ^68Ga-Cy5-CHP and ^64Cu-Cy5-CHP", "setting": "[4]; KPC model", "value": "further reduced"}, {"measurement": "uptake in the pancreas compared to ^68Ga-Cy5-CHP and ^64Cu-Cy5-CHP", "setting": "[4]; KPC model", "value": "further increased"}, {"measurement": "liver uptake", "setting": "denatured collagen [5]", "value": "low liver uptake"}, {"measurement": "renal uptake", "setting": "denatured collagen [5]", "value": "renal uptake is strong"}, {"measurement": "pancreatic radioactivity uptake (ex vivo PET and radioactivity measurement)", "setting": "PanIN lesions; 8-week-old KPC mice versus normal mice of the same age, after imaging", "value": "stronger Al^18F-Cy5-CHP uptake in the KPC pancreas"}, {"measurement": "PET image signal at the pancreas", "setting": "PanIN lesions; 8-week-old KPC mice, approx. 10 MBq tail vein, 2 h static PET-CT", "value": "high-signal points at the anatomical location of the pancreas in the abdomen"}, {"measurement": "detection of PanIN lesions, confirmed by pathology", "setting": "PanIN lesions; HE staining and CHP counterstaining of pancreas frozen sections", "value": "successfully detect such minute lesions as PanIN"}]}]}
